Experimental data taken from patent US8975259B2, “Compositions and methods for inhibiting G protein signaling” (University of Rochester, priority 2007, dated 2015).

Tests used:
[1] = system: human κ opioid receptor (hKOR-CHO cells); test: Total inositol phosphate assay in hKOR-CHO cells; details: 10 μM; result in words
[2] = system: human μ opioid receptor (hMOR-CHO cells); test: Total inositol phosphate assay in hMOR-CHO cells; details: 10 μM; result in words

CN(C(=O)Cc1ccc(Cl)c(Cl)c1)[C@@H]1CCCC[C@H]1N1CCCC1.CS(=O)(=O)O.O (relative stereo)
effect on IP production over control treated cells [1]: no significant effect | effect of compound by itself on IP production [2]: no effect
